In patent US11845808B2, “Peptide inhibitors of interleukin-23 receptor and their use to treat inflammatory diseases” (Janssen Biotech, Inc., priority 2020, dated 2023):

Columns and labels:
Type in all cases: in vitro ADME
[1] = Stability in cynomolgus monkey fecal homogenate; settings: 20% cynomolgus monkey fecal homogenate, 37° C., 20 μM
[2] = Stability in simulated gastric fluid (SGF); settings: pepsin, pH=2, 37° C., 20 μM peptide
[3] = Stability in rat plasma; settings: SD rat plasma, 37° C., 20 μM
[4] = Stability in human fecal homogenate; settings: 20% human fecal homogenate, 37° C., 20 μM

Ac-[Pen]-N-T-[W(7-Me)]-[Lys(Ac)]-[Pen]-Phe[4-(2-aminoethoxy)]-[2-Nal]-[THP]-E-N-[3Pal]-[Sarc]-NH2 [Peptide 104]
>24.0 h: t½: Monkey Feces anaerobic [1] | SGF t½ [2] | t½: Rat Plasma EDTA [3] | t½: Human Feces anaerobic [4]

Ac-[Pen]-N-T-[W(7-Ph)]-[Lys(Ac)]-[Pen]-Phe[4-(2-aceylaminoethoxy)]-[2-Nal]-[THP]-[Lys(Ac)]-N-[3Pal]-[Sarc]-NH2 [Peptide 137]
>24.0 h: t½: Monkey Feces anaerobic [1] | SGF t½ [2] | t½: Rat Plasma EDTA [3] | t½: Human Feces anaerobic [4]

Ac-[Pen]-N-T-[W(7-Ph)]-[Lys(Ac)]-[Pen]-Phe[4-(2-aminoethoxy)]-[2-Nal]-[THP]-E-N-[3Pal]-[Sarc]-NH2 [Peptide 106]
>24.0 h: t½: Monkey Feces anaerobic [1] | SGF t½ [2] | t½: Rat Plasma EDTA [3] | t½: Human Feces anaerobic [4]
